# Assay: Body weight of mice after immunization
# Conditions: day 1, day 2, day 14 and day 28 after immunization
smiles,measurement,value
"Cc1ccc2c(c1)nc(N)c1ncc(CCc3ccc(N(C)C)cc3)cc12 [Example 169, 2-(4-(dimethylamino)phenethyl)-8-methylbenzo[f][1,7]naphthyridin-5-amine]","weight drop, 3MenB/MF59 versus 3MenB/MF59+ compound",did not produce a statatistically significant different in weight drop
